# This is a selection; strong and weak results do not stand in their true shares. Results filed as inconclusive are left out. Active and inactive are the calls of the source. How the source made its calls: active means hit-call score of the fitted dose curve at least 0.9, where 1 is the maximum; inconclusive means response in the unintended direction; inactive means score below 0.9.
# Assay: ATG_Hpa5_TRANS: Attagene TRANS-FACTORIAL HepG2 Assay for human GAL4-Hpa5 Hepatocyte Transcription Factor Basal Promoter (AID 2282975);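 further: hits are increases in reporter mRNA over DMSO baseline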
# Conditions: HepG2 Attagene GAL4-Hpa5 transcription reporter
# Outline: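 Basal-promoter GAL4 background control within the HepG2 trans-factorial panel of transiently transfected reporter units. Reporter mRNA is measured 24 h after dosing by RT-PCR and capillary electrophoresis, fitted for gain of signal versus DMSO.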
smiles,measurement,value
O=C1C2CC=CCC2C(=O)N1SC(Cl)(Cl)C(Cl)Cl (stereo unspecified),outcome,inactive

# Source: PubChem BioAssay (EPA / NIEHS)
